The data set is described as follows: Membrane permeability (Papp) across Caco-2 cell monolayers. It is filed as in vitro ADME. As to conditions: human.

Here are results for 1 molecule from US6770638B2, “Tetrahydroindolone and purine derivatives linked to arylpiperazines” (Spectrum Pharmaceuticals, Inc., priority 2001, dated 2004).

Usually efflux ratio stands for a quotient of directional permeabilities that is used to spot active efflux. For the molecule `Cc1nc2n(c(=O)c1CCN1CCC(c3noc4cc(F)ccc34)CC1)CCCC2` [Risperidone, risperidone, reference compound], the efflux ratio was determined as 0.52.
